Measurements: US20140081001A1

Experiments:
[1] = molecular target: Rabbit IgG fraction, code X0903 (DAKO A/S) (rabbit); experiment: affinity chromatography on DAP held on biotin-agarose, 0.45 mL of 12 uM IgG injected, A280
[2] = molecular target: Rabbit IgG fraction, code X0903 (DAKO A/S) (rabbit); experiment: affinity chromatography, free DAP mixed with 3.2 mg rabbit IgG, then biotin-agarose, elution at pH 3.5; A280 (Example 7e)
[3] = molecular target: Rabbit IgG fraction, code X0903 (DAKO A/S) (rabbit); experiment: affinity chromatography on DAP held on biotin-agarose, 0.6 mL of 12 uM IgG injected, A280
[4] = molecular target: Rabbit IgG fraction, code X0903 (DAKO A/S) (rabbit); experiment: affinity chromatography on DAP held on biotin-agarose, 0.15 mL of 12 uM IgG injected, A280
[5] = molecular target: Rabbit IgG fraction, code X0903 (DAKO A/S) (rabbit); experiment: affinity chromatography, 3.2 mg rabbit IgG loaded on immobilised DAP, 4. reuse, elution at pH 3.5; A280 (Example 7f)
[6] = molecular target: Rabbit IgG fraction, code X0903 (DAKO A/S) (rabbit); experiment: affinity chromatography, 3.2 mg rabbit IgG loaded on immobilised DAP, 3. reuse, elution at pH 3.5; A280 (Example 7f)
[7] = molecular target: Rabbit IgG fraction, code X0903 (DAKO A/S) (rabbit); experiment: affinity chromatography on DAP held on biotin-agarose, 0.3 mL of 12 uM IgG injected, A280
[8] = molecular target: Rabbit IgG fraction, code X0903 (DAKO A/S) (rabbit); experiment: affinity chromatography, 3.2 mg rabbit IgG loaded on immobilised DAP, 2. reuse, elution at pH 3.5; A280 (Example 7f)
[9] = molecular target: Rabbit IgG fraction, code X0903 (DAKO A/S) (rabbit); experiment: affinity chromatography, 3.2 mg rabbit IgG loaded on immobilised DAP, 1. reuse, elution at pH 3.5; A280 (Example 7f)
[10] = molecular target: Rabbit IgG fraction, code X0903 (DAKO A/S) (rabbit); experiment: affinity chromatography, 3.2 mg rabbit IgG loaded on immobilised DAP, mean of four cycles
[11] = molecular target: IgG from rabbit serum (rabbit); experiment: affinity chromatography, DAP mixed with 115 uL rabbit serum, then biotin-agarose, elution with glycine buffer; A280 (Example 7c)
[12] = molecular target: Rabbit IgG fraction, code X0903 (DAKO A/S) (rabbit); experiment: affinity chromatography, DAP and 2 mg rabbit IgG mixed in solution, then biotin-agarose; A280 (Example 7a)
[13] = molecular target: Rabbit IgG fraction, code X0903 (DAKO A/S) (rabbit); experiment: affinity chromatography, 2 mg rabbit IgG loaded on DAP held on biotin-agarose; A280 (Example 7b)
[14] = molecular target: IgG from rabbit serum (rabbit); experiment: affinity chromatography, 115 uL rabbit serum loaded on DAP held on biotin-agarose, elution at pH 2.8; A280 (Example 7d)
[15] = molecular target: Rabbit IgG fraction, code X0903 (DAKO A/S) (rabbit); experiment: affinity chromatography, 2 mg rabbit IgG loaded on DAP held on biotin-agarose, elution at pH 2.8; A280 (Example 7b)
[16] = molecular target: Rabbit IgG fraction, code X0903 (DAKO A/S) (rabbit); experiment: affinity chromatography, DAP and 2 mg rabbit IgG mixed in solution, then biotin-agarose, elution at pH 2.8; A280 (Example 7a)

Substance | Peak height eluate [1] [mAU] | Peak height of flow through [1] [mAU] | IgG Recovered [2] [mg] | Peak height eluate [3] [mAU] | Peak height of flow through [3] [mAU] | Peak height eluate [4] [mAU] | Peak height of flow through [4] [mAU] | IgG Recovered [5] [mg] | IgG Recovered [6] [mg] | Peak height eluate [7] [mAU] | Peak height of flow through [7] [mAU] | IgG Recovered [8] [mg] | IgG Recovered [9] [mg] | IgG recovered on average in four repeated cycles [10] [mg] | Recovered IgG (mg) from serum [11] [mg] | Flow through [12] [%] | Flow through [13] [%] | Recovered IgG (mg) from serum [14] [mg] | Recovered [15] [%] | Recovered [16] [%]
DAP molecule [Protein A-Avidin] (from UniProt P38507 37-477; P02701 25-152) | 124 | 116 | 1.2 | 126 | 154 | 109 | 14 | 0.3 | 0.4 | 120 | 61 | 0.4 | 0.3 | 0.35 | – | – | – | – | – | –
DAP molecule [Protein A-Neutravidin] (from UniProt P38507 37-477; P02701 25-152) | – | – | – | – | – | – | – | – | – | – | – | – | – | – | 0.31 | 74 | 86 | 0.18 | 14 | 26
